Test results published in PubChem BioAssay (NCI).
Where “and” joins values, the source holds several entries; their conditions need not be identical. Equal values may be shown once. The list shows a part of the results, in another mix than the full data. Some salts or complexes appear as unconnected parts, following the source record. Calls of active or inactive are those of the source. Cut-off read from the data, not from the text of the source: active = growth inhibition above about 70%; inactive = the rest.

Key:
[1] = NCI Yeast Anticancer Drug Screen. Data for the rad50 strain (AID 155);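 note: 0% = growth of vehicle-only cultures of the same strain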; conditions: S. cerevisiae rad50 strain growth inhibition; at 50.0 µM; active compounds read high
[2] = NCI Yeast Anticancer Drug Screen. Data for the mec2-1 strain (AID 157); conditions: S. cerevisiae mec2-1 strain, at 50.0 µM, active compounds read high
[3] = NCI Yeast Anticancer Drug Screen. Data for the cln2 rad14 strain (AID 165);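 note: 0% = growth equal to vehicle treated cultures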; conditions: S. cerevisiae cln2 rad14 strain, at 50.0 µM, active compounds read high
[4] = NCI Yeast Anticancer Drug Screen. Data for the bub3 strain (AID 167); conditions: S. cerevisiae bub3 mutant strain, at 50.0 µM, active compounds read high
[5] = NCI Yeast Anticancer Drug Screen. Data for the mlh1 rad18 strain (AID 175); conditions: S. cerevisiae mlh1 rad18 strain growth inhibition; at 50.0 µM; active compounds read high
[6] = NCI Yeast Anticancer Drug Screen. Data for the sgs1 mgt1 strain (AID 161);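 note: 0% = growth of cultures given vehicle only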; conditions: S. cerevisiae sgs1 mgt1 strain, at 50.0 µM, active compounds read high

Measured: growth inhibition

C1CN1.CC(N)C(=O)O.Cc1c[nH]c(=O)[nH]c1=O
inactive: [1] 21% | [2] -5.5% | [3] 21.3% | [4] 26.9% | [5] 13.5%

O=C(O)C(O)(c1ccccc1)c1ccccc1.OC1CN2CCC1CC2
inactive: [1] -15.9% | [2] -4.3% | [6] -2.8% | [3] -1.85% | [4] -4.7% | [5] -6.55%

O=C(Nc1c([N+](=O)[O-])cc([N+](=O)[O-])cc1[N+](=O)[O-])c1ccccc1
inactive: [1] 19.9% | [2] 8.15% | [6] 29.8% | [3] 22.8% | [4] 22.6% | [5] 46.6%

O=[N+]([O-])c1cc([N+](=O)[O-])c(O)c([N+](=O)[O-])c1.c1ccc(C2CN2)cc1
inactive: [1] 40% | [2] -2.85% | [6] 27.6% | [3] 19.1% | [4] -6.95% | [5] 25.2%

NC1CCC2C3CCC(C3)C12.O=[N+]([O-])c1cc([N+](=O)[O-])c(O)c([N+](=O)[O-])c1
inactive: [1] 46.6% | [2] 16.3% | [3] -8.8% | [4] 21% | [5] 31.5%

C1CN1.Cc1c[nH]c(=O)[nH]c1=O.NC(CC(=O)O)C(=O)O
inactive: [1] -5.05% | [2] -4.4% | [3] 3.8% | [4] 1.8% | [5] 16.1%

CCCCOP(=S)(S)OCCCC.[Hg]
inactive: [1] 30.4% | [2] 17.1% | [6] 38.8% | [3] 19.9% | [4] 17.8% | [5] 12.9%

CC(C)([N+](=O)[O-])C(C)([N+](=O)[O-])[N+](=O)[O-]
inactive: [1] 39.1% | [2] -6.8% | [6] 37.2% | [3] 13.2% | [4] -1.15% | [5] 40%

N=C(N)N(N)[N+](=O)[O-]
inactive: [1] 28.8% | [2] 7.3% | [6] 23.9% | [3] 30.4% | [4] -14.3% | [5] 4.9%

C1CN1.Cc1c[nH]c(=O)[nH]c1=O
inactive: [1] -15.3% and -8.3% | [2] -28.2% and 13.6% | [3] -25.9% and -11.9% | [4] -17.3% and 2.85% | [5] -31.6% and -25.7%

CCN(CC)CCCl
inactive: [1] 46.6% | [2] -8.35% | [6] 5.95% | [3] 19% | [4] -21.2% | [5] 40%

CN(C)Cc1cc2ccccc2[nH]1.O=[N+]([O-])c1cc([N+](=O)[O-])c(O)c([N+](=O)[O-])c1
inactive: [1] -4.3% | [2] 9.55% | [6] 13.7% | [3] -17% | [5] 37%

CN(C)CCOC(=O)C(O)(c1ccccc1)C1CCCCC1 (stereo not drawn)
inactive: [1] -5.3% | [2] 9.1% | [6] 9.95% | [3] 21.4% | [4] 5% | [5] 1.15%

CCOP(=O)(CC)OCC
inactive: [1] 22.2% | [2] -17.3% | [6] 17.2% | [3] -10.1% | [4] -3.15% | [5] 12.7%

ClCCN(CCCl)[PH+]1NCCCO1.ClCCN(CCCl)[PH+]1NCCCO1.[Cl][Pt][Cl] (stereo not drawn)
inactive: [1] 2.2% and -0.25% | [2] 7.3% and 1.2% | [6] 8.05% and 9.55% | [3] -11.7% and -9% | [4] -2.8% and -5.2% | [5] 9.05% and 9.4%

NC(=NCCO[N+](=O)[O-])N[N+](=O)[O-]
inactive: [1] -1.1% | [2] -1.2% | [6] -9.15% | [3] -13.3% | [4] -13.9% | [5] 12.7%

C(=C\c1ccccn1)/c1ccccc1.O=[N+]([O-])c1cc([N+](=O)[O-])c(O)c([N+](=O)[O-])c1
inactive: [1] 7.4% | [2] 9.75% | [6] -3.75% | [3] -8.5% | [4] 22.6% | [5] 1.2%

CN=C(N)C(N)=NC.O=[N+]([O-])c1cc([N+](=O)[O-])c(O)c([N+](=O)[O-])c1
inactive: [1] 4.95% | [2] 18.3% | [6] 26.9% | [3] 9.25% | [4] -8.65% | [5] 7.45%

O=C1c2cc([N+](=O)[O-])ccc2-c2c1cc([N+](=O)[O-])cc2[N+](=O)[O-].c1cc2ccc3cccc4ccc(c1)c2c34
inactive: [1] 11.7% | [2] -0.8% | [6] 15.1% | [4] 3.8% | [5] 42.3%

O=[N+]([O-])c1cc([N+](=O)[O-])c(O)c([N+](=O)[O-])c1.c1ccc2c(c1)ccc1ccccc12
inactive: [1] 9.15% | [2] -4.2% | [6] 23.1% | [3] -4.4% | [4] -8% | [5] 14.8%

CC(O)CNC(C)C.O=[N+]([O-])c1cc([N+](=O)[O-])c(O)c([N+](=O)[O-])c1
inactive: [1] 5.9% | [2] 4.5% | [3] -39.2% | [4] -12.6% | [5] 2.95%

Cc1cccc2ccccc12.O=[N+]([O-])c1cc([N+](=O)[O-])c(O)c([N+](=O)[O-])c1
inactive: [1] 16.1% | [2] 4.65% | [6] 1.8% | [3] -1.15% | [4] 1.95% | [5] -5.05%

CC(C)(N)CO.O=[N+]([O-])c1cc([N+](=O)[O-])c(O)c([N+](=O)[O-])c1
inactive: [1] 8.95% | [2] 0.8% | [6] -0.9% | [3] -23.1% | [4] -3.3% | [5] -3.9%

CN(CCCl)C1CCCC1
inactive: [1] 8.75% | [2] 0.9% | [6] 4.95% | [3] -12.9% | [4] -0.6% | [5] 11.7%

CCCCC(CCCC)NCCO.O=[N+]([O-])c1cc([N+](=O)[O-])c(O)c([N+](=O)[O-])c1
inactive: [1] 33.8% | [2] -9.35% | [6] 16.6% | [3] -27.6% | [4] 1.15% | [5] 6.25%

CCCCN(CCCC)CCCC#N.O=[N+]([O-])c1cc([N+](=O)[O-])c(O)c([N+](=O)[O-])c1
inactive: [1] 29.2% | [2] 13.6% | [6] 18.7% | [3] 9.35% | [4] 0% | [5] 18.8%

CCN(CC)CCS(=O)CCN(CC)CC
inactive: [1] 11.1% | [2] 11.9% | [6] 19.8% | [3] -1.6% | [4] -2.05% | [5] 46.7%

N/C(=N\Nc1c([N+](=O)[O-])cc([N+](=O)[O-])cc1[N+](=O)[O-])c1cc([N+](=O)[O-])cc([N+](=O)[O-])c1
inactive: [1] 26.1% | [2] -12.1% | [6] 14.7% | [3] -20.2% | [4] -1.6% | [5] -2.5%

O=[N+]([O-])c1cc([N+](=O)[O-])c(O)c([N+](=O)[O-])c1.c1cc(N=Nc2ccncc2)ccn1
inactive: [1] 6.65% | [2] 11.7% | [6] 38% | [3] 26.8% | [4] 13.5% | [5] 14%

O=C(Nc1c([N+](=O)[O-])cc([N+](=O)[O-])cc1[N+](=O)[O-])C(=O)Nc1c([N+](=O)[O-])cc([N+](=O)[O-])cc1[N+](=O)[O-]
inactive: [1] 9.15% | [2] -0.15% | [6] 27.9% | [3] 21.4% | [4] -9.55% | [5] -8.55%

O=[N+]([O-])c1cccc([N+](=O)[O-])c1O
inactive: [1] 41.9% | [2] -14.5% | [6] -15.7% | [3] -55.5% | [4] -24.1% | [5] -6.6%

Nc1cccc(Cl)c1.O=[N+]([O-])c1cc([N+](=O)[O-])c(O)c([N+](=O)[O-])c1
inactive: [1] 2.4% | [2] 17.1% | [6] 11.1% | [3] -38.5% | [4] 38.2% | [5] 16.9%

n1nc(-c2nn[nH]n2)n[nH]1
inactive: [1] 2% | [2] -7.2% | [6] -1.35% | [3] -20.6% | [4] 5.8% | [5] 11.4%

CCCCCCC(C)NCC(C)(C)O.O=[N+]([O-])c1cc([N+](=O)[O-])c(O)c([N+](=O)[O-])c1
inactive: [1] 47.5% | [2] -2.3% | [6] 35% | [3] -14.8% | [4] 3.9% | [5] 18.6%

CCN(CC)CCOC(=O)C(O)(c1ccccc1)c1ccc(C)c(C)c1C (stereo not drawn)
inactive: [1] -1.1% | [2] 4.35% | [6] -5.55% | [3] -21.6% | [4] -5% | [5] 5.6%

O=[N+]([O-])c1ccc(Nc2ccc([N+](=O)[O-])cc2[N+](=O)[O-])c([N+](=O)[O-])c1
inactive: [1] -2.3% | [2] -2.9% | [6] -6.9% | [3] -30.4% | [4] 0.7% | [5] -14.3%

Cc1cccc2cc3c(ccc4ccccc43)cc12.O=C1c2cc([N+](=O)[O-])ccc2-c2c1cc([N+](=O)[O-])cc2[N+](=O)[O-]
inactive: [1] -4% | [2] 8.3% | [6] 9.15% | [3] -10.5% | [5] 21.9%

CC(c1ccccc1)N(C)C.O=[N+]([O-])c1cc([N+](=O)[O-])c(O)c([N+](=O)[O-])c1
inactive: [1] 6.2% | [2] -6.4% | [6] 4% | [4] -1.3% | [5] 10.8%

CC(CC(C#N)(c1ccccc1)c1ccccc1)N(C)C.O=[N+]([O-])c1cc([N+](=O)[O-])c(O)c([N+](=O)[O-])c1 (stereo not drawn)
inactive: [1] 23.1% | [2] 8.75% | [6] 20.2% | [3] 3.95% | [4] -3.5% | [5] 15.8%

O=[N+]([O-])c1cc([N+](=O)[O-])c(F)c([N+](=O)[O-])c1
inactive: [1] -15.2% | [2] -18.8% | [5] -24.3%
